According to publication PMC3825534 (Journal of Cancer Research and Clinical Oncology, 2013):

System: cell lines with non-malignant phenotypes (epithelial MCF 10A, renal RPTEC/TERT1 and hepatocyte NeHepLxHT)
Assay: FMCA concentration-response, non-malignant cell lines
Assay type: cell-based
Settings: 72 h FMCA
Protocol: The colon cancer cell lines HT29, HT-8 and SW626 and the normal phenotype non-malignant epithelial MCF 10A, renal RPTEC/TERT1 and hepatocyte NeHepLxHT cell lines were used for validation experiments. These cell lines were all obtained from ATCC and cultured according to the protocols provided by the supplier. All the cell lines were cultured at 37 °C in a humidified atmosphere containing 5 % CO2.
For dose–response studies, Labcyte source plates and the Echo dispenser were used in a similar manner to deliver different concentrations of each drug to destination plates using on board software protocols (Labcyte).
The fluorometric microculture cytotoxicity assay (FMCA), described in detail previously (Lindhagen et al. [2008]), was used for measurement of the cytotoxic effect of library compounds and the established standard drugs. The FMCA is based on measurement of fluorescence generated from hydrolysis of fluorescein diacetate (FDA) to fluorescein by cells with intact plasma membranes. […] Results are expressed as survival index (SI), defined as fluorescence of experimental wells in per cent of unexposed control wells with blank values subtracted.
Concentration–response data of screening hits and standard agents were analyzed using the software GraphPad Prism4 (GraphPad Software Inc., San Diego, CA, USA). […]

COC(=O)Nc1nc2ccc(C(=O)c3ccccc3)cc2[nH]1 [mebendazole]
activity in non-malignant cell line models: largely inactive
